# Assay: Selectivity ratio of IKK over CK2
compound,measurement,value
Clc1cc(Cl)c2[nH]c3cnccc3c2c1,Ratio,> 20
